Tests used:
[1] = tested on: Staphylococcus aureus; settings: ATCC 29213
[2] = tested on: Staphylococcus aureus
[3] = tested on: Staphylococcus aureus; remark: listed apart in the source

Measured: MIC

GENTAMICIN
0.5 µg/mL: [1] | [2] | [3]

From ChEMBL document CHEMBL1687796, “Synthesis and spectrum of the neoglycoside ACHN-490” (2010)
